This note sets out measurements from patent US9839646B2, “Small molecule enhancer for dendritic cell cancer vaccines” (priority 2011, dated 2017).

For experiment [1], the system named is DLD-1 xenograft tumors. Nature of the experiment: Colon cancer xenograft in nude mice. As to conditions: single agent; ARI-4175 100 μg oral q.d or b.i.d; cetuximab 200 μg per week i.p.
Experiment [2] concerns HCT-116 xenograft tumors. In words: Colon cancer xenograft in nude mice. The following applies: single agent; ARI-4175 100 μg oral q.d or b.i.d; cetuximab 200 μg per week i.p.

“Cetuximab: therapeutic antibody; antitumor effect thought mediated through ADCC [reference compound]”: the results for the tumor growth result in experiment [1] and in experiment [2] were “moderate efficacy” and “did not show any therapeutic effect”, respectively.
